Assay results from patent publication US9259452B2, “Deacetylase inhibitor therapy” (Celgene Corporation, priority 2006, dated 2016).

Test: Serum cardiac troponin I and CPK levels prior to and on the day after each dose
Settings: and in 18 cases on the day following those ECGs

C/C=C1\NC(=O)[C@H]2CSSCC/C=C/[C@H](CC(=O)N[C@H](C(C)C)C(=O)N2)OC(=O)[C@H](C(C)C)NC1=O [romidepsin, (1S,4S,10S,16E,21R)-7-[(2Z)-ethylidene]-4,21-diisopropyl-2-oxa-12,13-dithia-5,8,20,23-tetraazabicyclo[8.7.6]tricos-16-ene-3,6,9,19,22-pentanone]
Troponin levels coincident with all ECGs scored as grade 2: within normal limits
